Results taken from patent US8399712B2 (priority 2010, dated 2013).

How the values were obtained:
[1] = Relative humidity stability, saturated salt solutions at ambient temperature, XRPD; format: physicochemical
various enzymes = settings: literature (Pezet 1998, Breuil 1999); cited from earlier work

SMILES: NC(=O)N1c2ccccc2C=Cc2ccccc21 [carbamazepine]
- Results (form by XRPD) ([1]; 75% RH, 1 week): carbamazepine (Form III)
- Results (form by XRPD) ([1]; 75% RH, 4 weeks): carbamazepine (Form III)
- Results (form by XRPD) ([1]; 75% RH, 1 day): carbamazepine (Form III)
- Results (form by XRPD) ([1]; 75% RH, 3 days): carbamazepine (Form III)
- Conversion to hydrate ([1]; 75% RH, up to four weeks): no conversion
- Conversion to hydrate ([1]; 94% RH): partially converts to the dihydrate between three days and one week
- Results (form by XRPD) ([1]; 94% RH, 1 day): carbamazepine (Form III)
- Results (form by XRPD) ([1]; 94% RH, 3 days): carbamazepine (Form III)
- Conversion to hydrate ([1]; 98% RH): Full conversion to the dihydrate is observed in less than one day
- Results (form by XRPD) ([1]; 98% RH, 4 weeks): carbamazepine dihydrate

SMILES: COc1cc(/C=C/c2ccc(O)cc2)cc(OC)c1 [pterostilbene, trans-3,5-dimethoxy-4′-hydroxystilbene]
- Results (form by XRPD) ([1]; 75% RH, 4 weeks): pterostilbene (Form I)
- Results (form by XRPD) ([1]; 94% RH, 4 weeks): pterostilbene (Form I)
- Results (form by XRPD) ([1]; 98% RH, 4 weeks): pterostilbene (Form I)
- Oxidation by various enzymes (various enzymes): easily oxidized
